We go through six compounds from patent publication US20260384419A1, “NOVEL CRYSTALLINE FORM OF A PYRIMIDINE COMPOUND AND PHARMACEUTICAL COMPOSITIONS COMPRISING THE SAME AND METHODS OF USE THEREOF” (published 2026).

Data set [1] in a line: Dynamic vapor sorption (DVS) hygroscopicity. The conditions noted are these: for hygroscopicity in DVS: relative humidity 0% to 90%, 25 °C. The protocol: DVS analysis was performed by using a DVS Advantage (Surface Measurement System, United Kingdom) analyzer at 25 °C and a relative humidity of 0% to 90%, 10 mg of samples were placed in a wire mesh vapor sorption balance pan and mounted on a DVS Advantage Dynamic Vapor Sorption balance (Surface Measurement Systems, Ltd). The samples were applied to a ramping profile with relative humidity (RH) of 10% to 90% with a 10% increase of the sample while maintaining the sample in each step, until a stable weight is achieved (99.5% of weight change is completed in a step). After completion of a sorption cycle, the samples were dried in the same manner, always applying a 0% lower relative humidity after each step. Weight changes during sorption/desorption cycles (repeated 3 times) were recorded to measure hygroscopicity of the sample.

The nature of data set [2]: Stability of solid form under accelerated and stress conditions. The conditions noted are these: for stability of the crystalline form under accelerated condition (in words): 40 °C and relative humidity of 75%; for stability of the crystalline form under stress condition (in words): 60 °C. The protocol:
High-performance liquid chromatography (HPLC) analysis was performed by using an Agilent 1100/1200 Series HPLC Systems (Agilent, USA) analyzer to analyze purity and contents such as a stability test, and analysis conditions were as follows. • Purity and content analysis conditions: Furopyrimidine compound of Formula 1 • Column: Hydrosphere C18 (YMC), 5 μm (150 mm×4.6 mm) • Column temperature: 30 °C. • Detector: ultraviolet absorption photometer • Detection wavelength: 254 nm • Flow velocity: 1.0 mL/min • Analysis time: 35 minutes • Eluent: NaClO4—NaH2PO4-phosphoric acid buffer solution (pH 2.5±0.1)/CH3CN=65/35 (v/v %)

As to `Cc1ccc2c(-c3nc(Nc4cc(CN5C[C@@H](C)N[C@@H](C)C5)cc(C5CC5)c4)ncc3Cl)c[nH]c2c1` [Example 5], in data set [1], the “hygroscopicity in DVS” value is listed as “about 3.5%”. For the same compound, in data set [2], the “stability of the crystalline form under accelerated condition (in words)” value is “sufficiently stable” and the “stability of the crystalline form under stress condition (in words)” value (“stability … under stress condition (in words)” below) is “sufficiently stable”.
Turning to `Cc1ccc2c(-c3nc(Nc4cc(CN5C[C@@H](C)N[C@@H](C)C5)cc(C5CC5)c4)ncc3Cl)c[nH]c2c1` [Example 3], the “hygroscopicity in DVS” value in data set [1] was “about 12%”. In data set [2], the “stability of the crystalline form under accelerated condition (in words)” value is “sufficiently stable” and the “stability … under stress condition (in words)” value is on record as “sufficiently stable”.
For `Cc1ccc2c(-c3nc(Nc4cc(CN5C[C@@H](C)N[C@@H](C)C5)cc(C5CC5)c4)ncc3Cl)c[nH]c2c1` [Example 6], the “hygroscopicity in DVS” value in data set [1] was “about 0.5%”. Besides, in data set [2], the “stability of the crystalline form under accelerated condition (in words)” value is on record as “sufficiently stable” and the “stability … under stress condition (in words)” value is on record as “sufficiently stable”.
Consider `Cc1ccc2c(-c3nc(Nc4cc(CN5C[C@@H](C)N[C@@H](C)C5)cc(C5CC5)c4)ncc3Cl)c[nH]c2c1` [Example 1], for which the “hygroscopicity in DVS” value in data set [1] is “about 5%”.
As for `Cc1ccc2c(-c3nc(Nc4cc(CN5C[C@@H](C)N[C@@H](C)C5)cc(C5CC5)c4)ncc3Cl)c[nH]c2c1`, the “moisture absorption in DVS (in words)” value in data set [1] (relative humidity 0% to 20%) is listed as “occurrence of moisture absorption”. In addition, the “level of moisture absorption in DVS (in words)” value in data set [1] (relative humidity 30% or more) is recorded as “very low”. The “non-hygroscopicity (in words)” value in data set [1] (summary statement) is “particularly excellent”. In addition, in data set [2], the “stability of the crystalline form under accelerated condition (in words)” value is given as “sufficiently stable” and the “stability … under stress condition (in words)” value is given as “sufficiently stable”.
In the case of `Cc1ccc2c(-c3nc(Nc4cc(CN5C[C@@H](C)N[C@@H](C)C5)cc(C5CC5)c4)ncc3Cl)c[nH]c2c1` [Example 4], in data set [1], the “hygroscopicity in DVS” value is “about 0.3%”. In addition, in data set [2], the “stability of the crystalline form under accelerated condition (in words)” value is “sufficiently stable” and the “stability … under stress condition (in words)” value is on record as “sufficiently stable”.
